The entries are a selection whose mix differs from that of the whole data set. The source made the active and inactive calls. Cut-off read from the data, not from the text of the source: active = activation fold above about 2; inactive = the rest.
Target: Alkaline phosphatase, placental type (Homo sapiens) (UniProt P05187)
Assay: activation of human placental alkaline phosphatase – biochemical, luminescence, HTS (AID 696)
Conditions: purified PLAP enzyme, luminescent substrate read-out; at 20 µM; active compounds read high

Chains of the proteins cited; added tags and fusions are not shown.
UniProt P05187, whole entry: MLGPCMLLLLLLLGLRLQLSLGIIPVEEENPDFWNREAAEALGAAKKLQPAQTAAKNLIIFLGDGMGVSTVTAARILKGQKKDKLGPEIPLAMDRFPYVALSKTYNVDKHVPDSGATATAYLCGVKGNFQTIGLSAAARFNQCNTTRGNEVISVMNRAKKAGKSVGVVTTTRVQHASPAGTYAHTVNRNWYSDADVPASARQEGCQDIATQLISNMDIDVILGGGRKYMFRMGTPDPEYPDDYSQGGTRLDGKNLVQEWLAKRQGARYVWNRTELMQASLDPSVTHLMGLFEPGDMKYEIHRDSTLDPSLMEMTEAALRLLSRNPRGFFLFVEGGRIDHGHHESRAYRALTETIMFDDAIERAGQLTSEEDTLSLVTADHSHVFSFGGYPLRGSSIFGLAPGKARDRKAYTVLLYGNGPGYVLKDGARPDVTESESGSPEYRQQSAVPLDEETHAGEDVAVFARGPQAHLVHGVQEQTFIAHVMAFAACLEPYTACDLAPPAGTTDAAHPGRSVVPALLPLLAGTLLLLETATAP

Row | Compound | activation fold
1 | O=C(NCC1(N2CCOCC2)CCCCC1)c1cc2ccccc2o1 | inactive: 1
2 | O=C(OC1CN2CCC1CC2)C1c2ccccc2Oc2ccccc21 (stereo not given) | inactive: 1.3
3 | COc1ccc(NC2CCN(CCc3ccccc3)CC2)c(OC)c1 | inactive: 1.6
4 | N#CC1(Nc2ccccc2)CCN(CCc2ccccc2)CC1 | inactive: 1.2
5 | O=C(NCC1(N2CCOCC2)CCCCC1)c1cc(=O)[nH]c2ccccc12 | inactive: 1.4
6 | N/C(=N\O)c1c(N)no[n+]1[O-] | inactive: 0.9
7 | c1ccc(CN2CCC(Nc3ccccc3)CC2)cc1 | inactive: 1.7
8 | Fc1ccccc1NC1CCN(Cc2ccccc2)CC1 | inactive: 1.6
9 | CCOc1ncccc1C(=O)NCC1(N2CCOCC2)CCCCC1 | inactive: 1.4
10 | CCC(CO)(C(=O)OC1CN2CCC1CC2)c1ccccc1 (stereo not given) | inactive: 1.1

Source: PubChem BioAssay AID696 (Sanford-Burnham Center for Chemical Genomics, 2007)
